{"source": "patent US20260385963A1", "about": "“METHODS FOR IDENTIFICATION OF COMPOUND INTERACTION PARTNERS AND COMPOUNDS PRODUCED BY GENE CLUSTERS” (published 2026)", "key": {"ALG7 [1]": {"system": "ALG7", "test": "Gene identification screen, molecular barcoded yeast overexpression library"}, "ALG7 [2]": {"system": "ALG7", "conditions": "cited from earlier work"}, "ALG7 [3]": {"system": "ALG7", "test": "Gene identification screen, yeast heterozygous diploid knockout library"}, "ERG25": {"system": "ERG25", "test": "Chemical genetics screen, mutagenized fungal library (interaction z-score, ERG25)", "conditions": "FIG. 3B, FIG. 4"}, "[4]": {"system": "fungal library strains (EMS-Library, Control-Library)", "test": "Growth of fungal library strains at different inoculation quantities (OD600)", "conditions": "for OD600 measurement: rep 1 and rep 2, three days, 30 °C"}, "HSP82": {"system": "HSP82", "test": "Sequencing for HSP82 mutations after growth in radicicol", "conditions": "EMS-Library"}, "HSC82": {"system": "HSC82", "test": "Sequencing for HSC82 mutations after growth in radicicol", "conditions": "EMS-Library"}, "HSC82 or HPC82": {"system": "HSC82 or HPC82", "test": "Sequencing for HSC82 or HPC82 mutations after growth in radicicol", "conditions": "Control-Library"}, "FKS1 [5]": {"system": "FKS1", "test": "Sequencing for FKS1 mutations after growth in caspofungin, inoculation quantity test", "conditions": "for samples with FKS1 mutations: Control-Library, abundance threshold 10%"}, "msh2Δ fungal strain": {"system": "msh2Δ fungal strain", "test": "Growth of msh2Δ fungal strain at different sample volumes (OD600)", "conditions": "250 nM caspofungin"}, "Control strain": {"system": "Control strain", "test": "Growth of control strain at different sample volumes (OD600)", "conditions": "250 nM caspofungin, 30 °C, three days, replicates 1-6"}, "[6]": {"system": "EMS-Library (mutagenized fungal library)", "test": "Fungal resistance screening in liquid media, EMS-Library (OD600)", "conditions": "up to 1000 nM caspofungin, 72 hours, 30 °C, 100 μl"}, "FKS1 [7]": {"system": "FKS1", "test": "Sequence assessment of FKS1 gene in EMS-Library after growth in caspofungin", "conditions": "at least 250 nM caspofungin, eight samples"}, "FKS1 [8]": {"system": "FKS1", "test": "Nanopore sequencing of FKS1 gene in msh2Δ+caspofungin wells", "conditions": "250 nM caspofungin"}, "LCB2": {"system": "LCB2", "conditions": "cited from earlier work"}, "[9]": {"conditions": "0.016 μM compound, inoculation 2M cells"}, "[10]": {"conditions": "0.016 μM compound, inoculation 5M cells"}, "[11]": {"conditions": "0.08 μM compound, inoculation 2M cells"}, "[12]": {"conditions": "0.08 μM compound, inoculation 5M cells"}, "[13]": {"conditions": "0.4 μM compound, inoculation 2M cells"}, "[14]": {"conditions": "0.4 μM compound, inoculation 5M cells"}, "[15]": {"conditions": "2 μM compound, inoculation 2M cells"}, "[16]": {"conditions": "2 μM compound, inoculation 5M cells"}, "[17]": {"conditions": "10 μM compound, inoculation 2M cells"}, "[18]": {"conditions": "10 μM compound, inoculation 5M cells"}}, "note": "Several values for one entry are separate records, joined by “and”; a condition that tells them apart may be missing. Equal values may be shown once."}
{"molecule": "tunicamycin", "values": [{"measurement": "strain vs. IQR score, outliers including ALG7", "setting": "ALG7 [1]", "result": "Multiple extreme outliers were identified"}, {"measurement": "known target (ALG7)", "setting": "ALG7 [2]", "result": "known target of tunicamycin"}, {"measurement": "strain vs. IQR score, outliers (one is ALG7)", "setting": "ALG7 [3]", "result": "Two extreme outliers were identified"}]}
{"molecule": "CCC[C@H](O)C[C@@H]1CC[C@H](C)CCCCC(=O)N(C)[C@@H](Cc2ccc(OCCO)cc2)C(=O)O1", "values": [{"measurement": "ERG25-detected bioactivity", "setting": "ERG25", "result": "ERG25-detected bioactivity"}]}
{"molecule": "C[C@@H]1C[C@H]2O[C@@H]2/C=C\\C=C\\C(=O)Cc2c(Cl)c(O)cc(O)c2C(=O)O1", "values": [{"measurement": "OD600 measurement", "setting": "[4]; [9]", "result": "0.57 and 0.66"}, {"measurement": "OD600 measurement", "setting": "[4]; [10]", "result": "0.76 and 0.53"}, {"measurement": "OD600 measurement", "setting": "[4]; [11]", "result": 0.58}, {"measurement": "OD600 measurement", "setting": "[4]; [12]", "result": "0.87 and 0.60"}, {"measurement": "OD600 measurement", "setting": "[4]; [13]", "result": "0.67 and 0.64"}, {"measurement": "OD600 measurement", "setting": "[4]; [14]", "result": "0.80 and 0.61"}, {"measurement": "OD600 measurement", "setting": "[4]; [15]", "result": "0.68 and 0.64"}, {"measurement": "OD600 measurement", "setting": "[4]; [16]", "result": "0.89 and 0.78"}, {"measurement": "OD600 measurement", "setting": "[4]; [17]", "result": "0.75 and 0.65"}, {"measurement": "OD600 measurement", "setting": "[4]; [18]", "result": "0.84 and 0.65"}, {"measurement": "samples with HSP82 mutations", "setting": "HSP82; 2 million cells", "result": "0/1"}, {"measurement": "samples with HSP82 mutations", "setting": "HSP82; 5 million cells", "result": "0/1"}, {"measurement": "frequency of HSC82 mutation (XIII 634144)", "setting": "HSC82; 2 million cells", "result": 12.5, "unit": "%"}, {"measurement": "samples with an HSC82 mutation (XIII 634144)", "setting": "HSC82; 2 million cells", "result": "1/1"}, {"measurement": "number of distinct HSC82 missense mutations", "setting": "HSC82; 5 million cells, 10% threshold", "result": "seven"}, {"measurement": "samples with HSC82 missense mutations", "setting": "HSC82; 5 million cells, 10% threshold", "result": "1/1"}, {"measurement": "samples with HSC82 or HPC82 mutations", "setting": "HSC82 or HPC82; 2 million cells", "result": "0/6"}, {"measurement": "samples with mutations in HSC82 or HPC82", "setting": "HSC82 or HPC82; 5 million cells", "result": "0/6"}]}
{"molecule": "CC[C@H](C)C[C@H](C)CCCCCCCCC(=O)N[C@H]1C[C@@H](O)[C@@H](NCCN)NC(=O)[C@@H]2[C@@H](O)CCN2C(=O)[C@H]([C@H](O)CCN)NC(=O)[C@H]([C@H](O)[C@@H](O)c2ccc(O)cc2)NC(=O)[C@@H]2C[C@@H](O)CN2C(=O)[C@H]([C@@H](C)O)NC1=O", "values": [{"measurement": "samples with FKS1 mutations", "setting": "FKS1 [5]; 2 million cells", "result": "0/6"}, {"measurement": "samples with FKS1 mutations", "setting": "FKS1 [5]; 5 million cells", "result": "0/6"}, {"measurement": "frequency of XII 814065 missense mutation in FKS1", "setting": "FKS1 [5]; EMS-Library, 2 million cells", "result": 98, "unit": "%"}, {"measurement": "samples that passed sequencing with missense mutation in FKS1 (XII 814065)", "setting": "FKS1 [5]; EMS-Library, 2 million cells", "result": "1/1"}, {"measurement": "frequency of two alleles containing missense mutations in FKS1 (XII 811888 and XII 811924)", "setting": "FKS1 [5]; EMS-Library, 5 million cells", "result": 50, "unit": "%"}, {"measurement": "samples that passed sequencing with two alleles containing missense mutations in FKS1 (XII 811888 and XII 811924)", "setting": "FKS1 [5]; EMS-Library, 5 million cells", "result": "1/1"}, {"measurement": "resistance of the msh2Δ strain", "setting": "msh2Δ fungal strain; all volume conditions", "result": "resistant to caspofungin"}, {"measurement": "OD600 readings, all 36 wells", "setting": "msh2Δ fungal strain; msh2Δ, 150-900 μl", "result": "above 0.85"}, {"measurement": "OD600 measurement", "setting": "[4]; 0.016 μM compound, inoculation 5M cells, listed as Caspofungin", "result": "0.91 and 0.94"}, {"measurement": "OD600 measurement", "setting": "[4]; 0.4 μM compound, inoculation 2M cells, listed as Caspofungin", "result": "0.05 and 0.07"}, {"measurement": "OD600 measurement", "setting": "[4]; 0.4 μM compound, inoculation 5M cells, listed as Caspofungin", "result": "0.09 and 0.11"}, {"measurement": "OD600 measurement", "setting": "[4]; 2 μM compound, inoculation 2M cells, listed as Caspofungin", "result": "0.06 and 0.08"}, {"measurement": "OD600 measurement", "setting": "[4]; 10 μM compound, inoculation 2M cells, listed as Caspofungin", "result": "0.05 and 0.07"}, {"measurement": "OD600 measurement", "setting": "[4]; 10 μM compound, inoculation 5M cells, listed as Caspofungin", "result": "0.08 and 0.12"}, {"measurement": "OD600 measurement", "setting": "[4]; 50 μM compound, inoculation 2M cells, listed as Caspofungin", "result": "0.06 and 0.07"}, {"measurement": "OD600 measurement", "setting": "[4]; 50 μM compound, inoculation 5M cells, listed as Caspofungin", "result": "0.10 and 0.12"}, {"measurement": "OD600 measurement", "setting": "[4]; 250 μM compound, inoculation 2M cells, listed as Caspofungin", "result": "0.05 and 0.07"}, {"measurement": "OD600 measurement", "setting": "[4]; 250 μM compound, inoculation 5M cells, listed as Caspofungin", "result": "0.09 and 0.12"}, {"measurement": "OD600 measurement", "setting": "Control strain; 150 μl", "result": "0.11 and 0.09 (3×) and 0.10 (2×)"}, {"measurement": "OD600 measurement", "setting": "Control strain; 300 μl", "result": "0.08 (4×) and 0.09 (2×)"}, {"measurement": "OD600 measurement", "setting": "Control strain; 600 μl", "result": "0.08 (3×) and 0.09 (3×)"}, {"measurement": "OD600 measurement", "setting": "Control strain; 900 μl", "result": "0.08 (4×) and 0.09 (2×)"}, {"measurement": "growth of EMS-Library", "setting": "[6]", "result": "able to grow in all concentrations of caspofungin"}, {"measurement": "samples with mutations in the FKS1 gene", "setting": "FKS1 [7]", "result": "all revealed mutations in the FKS1 gene"}, {"measurement": "samples with a mutation in the FKS1 gene at over 20% abundance", "setting": "FKS1 [8]", "result": "23/24"}]}
{"molecule": "CC(=C\\C(=O)O)/C=C(\\C)C[C@H](C)CCCC[C@H]1OC(=O)[C@@H]1CO", "values": [{"measurement": "OD600 measurement", "setting": "[4]; [9]", "result": "0.92 and 1.09"}, {"measurement": "OD600 measurement", "setting": "[4]; [10]", "result": "0.58 and 0.99"}, {"measurement": "OD600 measurement", "setting": "[4]; [11]", "result": "0.90 and 1.02"}, {"measurement": "OD600 measurement", "setting": "[4]; [12]", "result": "0.66 and 0.91"}, {"measurement": "OD600 measurement", "setting": "[4]; [13]", "result": "0.84 and 0.97"}, {"measurement": "OD600 measurement", "setting": "[4]; [14]", "result": "0.48 and 0.91"}, {"measurement": "OD600 measurement", "setting": "[4]; [15]", "result": "0.75 and 0.85"}, {"measurement": "OD600 measurement", "setting": "[4]; [16]", "result": "0.51 and 0.81"}, {"measurement": "OD600 measurement", "setting": "[4]; [17]", "result": "0.82 and 0.54"}, {"measurement": "OD600 measurement", "setting": "[4]; [18]", "result": "0.53 and 0.59"}, {"measurement": "OD600 measurement", "setting": "[4]; 50 μM compound, inoculation 2M cells", "result": "0.79 and 0.76"}, {"measurement": "OD600 measurement", "setting": "[4]; 50 μM compound, inoculation 5M cells", "result": "0.58 and 0.54"}, {"measurement": "OD600 measurement", "setting": "[4]; 250 μM compound, inoculation 2M cells", "result": "0.07 and 0.11"}, {"measurement": "difference in OD600 measurements between EMS-Library and Control-Library samples", "setting": "[4]; all concentrations tested", "result": "not significant"}]}
{"molecule": "CC(C)CCCC(=O)CCCCCCC(=O)CCN(O)C(=O)[C@@H](N)CO", "values": [{"measurement": "known target (LCB2)", "setting": "LCB2", "result": "known target of lipoxamycin"}]}
